Legend:
[1] = target: deoxyribose-phosphate aldolase (DeoC) (E. coli BL21 (DE3)); assay: SAXS; EMBL P12 beamline, 20 °C, four concentrations between about 10 and 90 μM; MM from I(0) and equilibrium fit with OLIGOMER on PDB structures
[2] = target: deoxyribose-phosphate aldolase (DeoC) (E. coli BL21 (DE3)); assay: SEC; 30 μg protein on Superdex 200 Increase 10/300 GL in PBS pH 7.4; MM from a standard curve of elution volumes
[3] = target: deoxyribose-phosphate aldolase (DeoC) (E. coli BL21 (DE3)); assay: mass photometry; protein stocks diluted in PBS pH 7.4 to nanomolar concentrations (~100 nM) immediately before measurement; detection threshold ~40 kDa
[4] = target: deoxyribose-phosphate aldolase (DeoC) (E. coli BL21 (DE3)); assay: native MS; online buffer exchange MS; proteins diluted in 50 mM HEPES, 50 mM NaCl pH 7.4 (FabG: 25 mM tricine, 50 mM NaCl pH 8.5), overnight at 4 °C, exchanged online to 200 mM ammonium acetate pH 6.8; range of concentrations 40-0.15 μM before dilution; DeoC: apparent affinity, dimer to monomers, fit of eqn (1)

- stoichiometry N [1]: 2
- stoichiometry N [2]: 2
- stoichiometry N [3]: 2
- Kd [4]: 2.2 µM
- stoichiometry N [4]: 2
Substance: deoxyribose-phosphate aldolase (DeoC) (enzyme)

Source: publication PMC9555727, “Protein quaternary structures in solution are a mixture of multiple forms†” (Chemical Science, 2022)
